1 molecule from US7507792B2, “MDA-7 proteins and methods of use thereof” (The Trustees of Columbia University In The City of New York, priority 1993, dated 2009) can be followed below.

For one assay, the system named is H0-1 cells. Put plainly: Northern blotting analysis of steady-state mRNA levels. The following applies: 96 h, FIG. 1 concentrations. The format is cell-based, human. How it is done:
Steady-state levels of specific mRNAs were determined by Northern blotting analysis of total RNA probed with appropriate ^32P-labeled gene probes as described previously (14-16). RNAs were analyzed from cells treated with inducer for 24 hours, treated for 24 hours with inducer followed by growth for 72 hours in the absence of inducer, or treated continuously for 96 hours with the inducer. The concentration of inducing compounds used were the same as those used for growth studies. The effect of conditioned medium on gene expression changes was determined by treating H0-1 cells for 24 hours with a 1:2 dilution of conditioned medium (equal volumes of conditioned medium and DMEM supplemented with 10% fetal bovine serum (DMEM-10) or for 96 hours with a 1:4 dilution of conditioned medium (1 vol. of conditioned medium to 3 vol. of DMEM-10). The probes used in the present study were specific for β-actin (17), γ-actin (17), c-jun (18), c-myc (19), fibronectin (20), gro/MGSA (21), HLA Class I antigen (22), HLA Class II antigen (HLA-DRβ) (22), α5 integrin (23), β1 integrin (24), ISG-15 (25), ISG-54 (25), jun-B (26), and tenascin (27). Northern blots were also probed with a ^32P-labeled GAPDH gene (15) to verify similar mRNA expression under the various experimental conditions. Following hybridization, the filters were washed and exposed for autoradiography.

For another assay, the system named is mda-8. As to the kind of experiment: mda-8 expression (Northern blotting). The class given is cell-based, human. The following applies: H0-1. The protocol:
FIG. 19 Effect of various treatment protocols on mda expression in H0-1 cells. IFN-β (2,000 units/ml, 24 hours); MEZ (10 ng/ml, 24 hours); IFN-β+MEZ (2,000 units/ml+10 ng/ml, 24 hours); phenyl butyrate (PB) (4 mM, 24 hours, 4 d, 7 d); γ Rad (γ irradiation) 3 gray, 24 hours, Act D (actinomycin D) (5 μg/ml, 2 hour→24 hours assay); Adriamycin (Adr) (0.1 μg/ml, 24 hours); Vincristine (Vin) (0.1 μg/ml, 24 hours); cis-plt (cis-platinum) (0.1 μg/ml, 24 hours); TNF-α (tumor necrosis factor-α) (100 units/ml, 24 hours); UV (10 joules/mm^2, 2, 14 and 24 hours assay); VP-16 (5 μg/ml, 24 hours); IFN-α (2,000 units/ml, 24 hours); and IFN-α+MEZ (2,000 units/ml+10 ng/ml, 24 hours).
The mass excision of the library was performed using ExAssist helper phage as described above. The SOLR strain of Escherichia coli and cDNA phagemids were mixed at 37° C. for 15 min and plated onto LB plates containing ampicillin and IPTG/X-gal. White colonies were chosen at random, isolated and grown in LB medium. Plasmid minireps and restriction enzyme digestions were performed to confirm the presence of inserts. The inserts were isolated and used as robes for Northern blotting analysis (5,25). […]

“Also recorded” adds a separate entry of the source.

B1: IFN-β: Recombinant human IFN-β, with a serine substituted for a cysteine at position 17 of the molecule (protein)
chain: MSYNLLGFLQRSSNFQCQKLLWQLNGRLEYCLKDRMNFDIPEEIKQLQQFQKEDAALTIYEMLQNIFAIFRQDSSSTGWNETIVENLLANVYHQINHLKTVLEEKLEKEDFTRGKLMSSLHLKRYYGRILHYLKAKEYSHCAWTIVRVEILRNFYFINRLTGYLRN
In the case of B1, in the assay on H0-1 cells, the “HLA Class I antigen gene expression” value is “did not significantly alter”, the fibronectin expression result is “least effective”, the “induction of gro/MGSA gene expression” value is listed as “did not” and the tenascin expression result is recorded as “decreased tenascin expression”. The mda-8 expression result with mda-8 (24 hours, doses of FIG. 19, phenyl butyrate 24 hours, 4 days or 7 days) was “Increased expression; also recorded: No change in expression”. Moreover, the mda-8 expression entry in the assay on mda-8 (96 hours, doses of FIG. 15 legend) is on record as “No change in expression”.
